Experimental data: US20240360179A1, “STAPLED PEPTIDES AND METHODS THEREOF” (FOG PHARMACEUTICALS, INC., priority 2021, published 2024)

Amino acid sequences for entries named in this document (tags omitted).
UniProt P35222, whole entry: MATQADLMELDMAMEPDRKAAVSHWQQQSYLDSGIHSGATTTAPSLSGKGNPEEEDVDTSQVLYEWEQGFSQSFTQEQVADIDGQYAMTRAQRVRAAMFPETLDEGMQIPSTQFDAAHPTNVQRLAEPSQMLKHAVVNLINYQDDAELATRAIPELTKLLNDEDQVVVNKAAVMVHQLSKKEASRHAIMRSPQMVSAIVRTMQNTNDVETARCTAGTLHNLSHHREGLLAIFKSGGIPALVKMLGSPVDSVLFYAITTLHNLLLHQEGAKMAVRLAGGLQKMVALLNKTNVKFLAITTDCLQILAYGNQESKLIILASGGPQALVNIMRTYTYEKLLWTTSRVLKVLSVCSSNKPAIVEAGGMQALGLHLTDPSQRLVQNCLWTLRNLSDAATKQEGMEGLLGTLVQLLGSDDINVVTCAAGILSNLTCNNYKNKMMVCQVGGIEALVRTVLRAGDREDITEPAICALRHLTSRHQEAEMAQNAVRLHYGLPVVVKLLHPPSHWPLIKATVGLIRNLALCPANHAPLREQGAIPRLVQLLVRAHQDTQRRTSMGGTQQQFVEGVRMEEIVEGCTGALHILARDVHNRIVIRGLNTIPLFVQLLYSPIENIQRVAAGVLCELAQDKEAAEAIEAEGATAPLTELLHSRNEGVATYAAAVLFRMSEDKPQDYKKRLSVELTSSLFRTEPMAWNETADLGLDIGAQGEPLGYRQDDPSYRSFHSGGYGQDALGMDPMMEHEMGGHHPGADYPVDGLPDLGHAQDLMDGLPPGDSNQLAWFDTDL

Tests used:
[1] = molecular target: T1, full-length B-Catenin (Uniprot ID P35222) (Homo sapiens, UniProt P35222); assay: biochemical; type: binding; conditions: beta-Catenin FP IC50 (nM), competition fluorescence polarization
T1 construct: 10 nM full-length B-Catenin (Uniprot ID P35222)

[2] = molecular target: beta-catenin/TCF4 interaction (Homo sapiens, UniProt P35222); assay: cell-based; parameters: host or cells: HEK293; conditions: NanoBRET Abs IC50 (uM)

| SMILES | IC50 [1] | IC50 ([2]; absolute IC50) | IC50 [2] |
| --- | --- | --- | --- |
| CC(=O)N1CCC[C@]12CC=CCCCC1(CCCC=CCCCOC(=O)N3CC[C@@]4(C3)NC(=O)[C@H](CCCCNC(=O)CC[C@@H](C(=O)NC(C)(C)C(=O)N[C@@H](C)C(N)=O)NC(=O)[C@H](Cc3csc5ccccc35)NC(=O)[C@H](Cc3ccsc3)NC4=O)NC(=O)[C@H](Cc3ccccc3)NC(=O)[C@H](C)NC(=O)C(C)(C)NC(=O)[C@H](Cc3cccc(C(=O)O)c3)NC(=O)[C@H](CC(=O)O)NC1=O)NC(=O)[C@H](CC(C)(C)C)NC(=O)[C@H](CC(=O)O)NC2=O (single isomer, unassigned) [I-404, Ac-PL3-Asp-Npg-B5-Asp-3COOHF-Aib-Ala-Phe-Lys*3-PyrS2-3Thi-BztA-GlnR*3-Aib-Ala-NH2] | < 50 nM | < 1.5 µM | – |
| CC(=O)N1CCC[C@]12CC=CCCCC1(CCCC=CCCCOC(=O)N3CC[C@@]4(C3)NC(=O)[C@H](CCCCNC(=O)CC[C@@H](C(=O)N[C@@H](C)C(N)=O)NC(=O)[C@H](Cc3ccc5ccccc5c3)NC(=O)[C@H](Cc3ccccc3Cl)NC4=O)NC(=O)[C@H](Cc3ccccc3)NC(=O)[C@H](C)NC(=O)C(C)(C)NC(=O)[C@H](Cc3cccc(C(=O)O)c3)NC(=O)[C@H](CC(=O)O)NC1=O)NC(=O)[C@H](CC(C)(C)C)NC(=O)[C@H](CC(=O)O)NC2=O (single isomer, unassigned) [I-487, Ac-PL3-Asp-Npg-B5-Asp-3COOHF-Aib-Ala-Phe-Lys*3-PyrS2-2ClF-2NapA-GlnR*3-Ala-NH2] | < 50 nM | 3 to 10 µM | – |
| CC(=O)N1CCC[C@]12CC=CCCCC1(CCCC=CCCCOC(=O)N3CC[C@@]4(C3)NC(=O)[C@H](CCCCNC(=O)CC[C@@H](C(=O)NC(C)(C)C(N)=O)NC(=O)[C@H](Cc3csc5ccccc35)NC(=O)[C@H](Cc3ccsc3)NC4=O)NC(=O)[C@H](Cc3ccccc3)NC(=O)[C@H](C)NC(=O)C(C)(C)NC(=O)[C@H](Cc3cccc(C(=O)O)c3)NC(=O)[C@H](CC(=O)O)NC1=O)NC(=O)[C@H](CC(C)(C)C)NC(=O)[C@H](CC(=O)O)NC2=O (relative stereo) [I-397, Ac-PL3-Asp-Npg-B5-Asp-3COOHF-Aib-Ala-Phe-Lys*3-PyrS2-3Thi-BztA-GlnR*3-Aib-NH2] | < 50 nM | 1.5 to 3 µM | – |
| CC(=O)N1CCC[C@]12CC=CCCCC1(CCCC=CCCCOC(=O)N3CC[C@@]4(C3)NC(=O)[C@H](CCCCn3cc(nn3)C[C@@H](C(N)=O)NC(=O)[C@H](Cc3csc5ccccc35)NC(=O)[C@H](Cc3ccccc3C(F)(F)F)NC4=O)NC(=O)[C@H](Cc3ccccc3)NC(=O)[C@H](C)NC(=O)[C@H](C)NC(=O)[C@H](Cc3cccc(C(=O)O)c3)NC(=O)[C@H](CC(=O)O)NC1=O)NC(=O)[C@H](CC(C)(C)C)NC(=O)[C@H](CC(=O)O)NC2=O (single isomer, unassigned) [I-21, Ac-PL3-Asp-Npg-B5-Asp-3COOHF-Ala-Ala-Phe-TriAzLys*3-PyrS2-2F3MeF-BztA-sAla*3-NH2] | < 50 nM | – | 1.5 to 3 µM |
| CC(=O)N1CCC[C@]12CC=CCCCC1(CCCC=CCCCOC(=O)N3CC[C@@]4(C3)NC(=O)[C@H](CCCCn3cc(nn3)C[C@@H](C(N)=O)NC(=O)[C@H](Cc3csc5ccccc35)NC(=O)[C@H](Cc3ccsc3)NC4=O)NC(=O)[C@H](Cc3ccccc3)NC(=O)[C@H](C)NC(=O)[C@H](C)NC(=O)[C@H](Cc3cccc(C(=O)O)c3)NC(=O)[C@H](CC(=O)O)NC1=O)NC(=O)[C@H](CC(C)(C)C)NC(=O)[C@H](CC(=O)O)NC2=O (single isomer, unassigned) [I-19, Ac-PL3-Asp-Npg-B5-Asp-3COOHF-Ala-Ala-Phe-TriAzLys*3-PyrS2-3Thi-BztA-sAla*3-NH2] | < 50 nM | – | 3 to 10 µM |
| CC(=O)NCCCC[C@@H]1NC(=O)[C@H](Cc2cccc(C(=O)O)c2)NC(=O)[C@H](CC(=O)O)NC(=O)C2(CCCC=CCCCOC(=O)N3CC[C@@]4(C3)NC(=O)[C@H](CCCCNC(=O)CC[C@@H](C(=O)N[C@@H](C)C(N)=O)NC(=O)[C@H](Cc3csc5ccccc35)NC(=O)[C@H](Cc3ccsc3)NC4=O)NC(=O)[C@H](Cc3ccccc3)NC(=O)[C@H](C)NC1=O)CCCC=CC[C@]1(CCCN1C(C)=O)C(=O)N[C@@H](CC(=O)O)C(=O)N[C@@H](CC(C)(C)C)C(=O)N2 (relative stereo) [I-381, Ac-PL3-Asp-Npg-B5-Asp-3COOHF-AcLys-Ala-Phe-Lys*3-PyrS2-3Thi-BztA-GlnR*3-Ala-NH2] | < 50 nM | 1.5 to 3 µM | – |

Second part, the molecule after the results:

| IC50 [1] | IC50 ([2]; absolute IC50) | IC50 [2] | SMILES |
| --- | --- | --- | --- |
| < 50 nM | 3 to 10 µM | – | CC(=O)N1CCC[C@]12CC=CCCCC1(CCCC=CCCCOC(=O)N3CC[C@@]4(C3)NC(=O)[C@H](CCCCNC(=O)CC[C@@H](C(=O)N[C@@H](C)C(N)=O)NC(=O)[C@H](Cc3csc5ccccc35)NC(=O)[C@H](Cc3ccsc3)NC4=O)NC(=O)[C@H](Cc3ccccc3)NC(=O)[C@H](C)NC(=O)[C@@](C)(CC(C)C)NC(=O)[C@H](Cc3cccc(C(=O)O)c3)NC(=O)[C@H](CC(=O)O)NC1=O)NC(=O)[C@H](CC(C)(C)C)NC(=O)[C@H](CC(=O)O)NC2=O (relative stereo) [I-433, Ac-PL3-Asp-Npg-B5-Asp-3COOHF-DaMeL-Ala-Phe-Lys*3-PyrS2-3Thi-BztA-GlnR*3-Ala-NH2] |
| < 50 nM | – | 3 to 10 µM | CC(=O)N1CCC[C@]12CC=CCCCC1(CCCC=CCCCOC(=O)N3CC[C@@]4(C3)NC(=O)[C@H](CCCCNC(=O)CC[C@@H](C(=O)N[C@@H](C)C(N)=O)NC(=O)[C@H](Cc3csc5ccccc35)NC(=O)[C@H](CCC(C)C)NC4=O)NC(=O)[C@H](Cc3ccccc3)NC(=O)[C@H](C)NC(=O)C(C)(C)NC(=O)[C@H](Cc3cccc(C(=O)O)c3)NC(=O)[C@H](CC(=O)O)NC1=O)NC(=O)[C@H](CC(C)(C)C)NC(=O)[C@H](CC(=O)O)NC2=O (single isomer, unassigned) [I-275, Ac-PL3-Asp-Npg-B5-Asp-3COOHF-Aib-Ala-Phe-Lys*3-PyrS2-hLeu-BztA-GlnR*3-Ala-NH2] |
| < 50 nM | – | 1.5 to 3 µM | CC(=O)N1CCC[C@]12CC=CCCCC1(CCCC=CCCCOC(=O)N3CC[C@@]4(C3)NC(=O)[C@H](CCCCNC(=O)CC[C@@H](C(=O)N[C@@H](C)C(N)=O)NC(=O)[C@H](Cc3csc5ccccc35)NC(=O)[C@H](Cc3ccsc3)NC4=O)NC(=O)[C@H](Cc3ccccc3)NC(=O)[C@H](C)NC(=O)C(C)(C)NC(=O)[C@H](Cc3cccc(C(=O)O)c3)NC(=O)[C@H](CC(=O)O)NC1=O)NC(=O)[C@H](CC(C)(C)C)NC(=O)[C@H](CC(N)=O)NC2=O (relative stereo) [I-159, Ac-PL3-Asn-Npg-B5-Asp-3COOHF-Aib-Ala-Phe-Lys*3-PyrS2-3Thi-BztA-GlnR*3-Ala-NH2] |
| < 50 nM | 1.5 to 3 µM | – | CC(=O)N1CCC[C@]12CC=CCCCC1(CCCC=CCCCOC(=O)N3CC[C@@]4(C3)NC(=O)[C@H](CCCCNC(=O)CC[C@@H](C(=O)N[C@@H](C)C(N)=O)NC(=O)[C@H](Cc3csc5ccccc35)NC(=O)[C@H](Cc3cccc5ccccc35)NC4=O)NC(=O)[C@H](Cc3ccccc3)NC(=O)[C@H](C)NC(=O)C(C)(C)NC(=O)[C@H](Cc3cccc(C(=O)O)c3)NC(=O)[C@H](CC(=O)O)NC1=O)NC(=O)[C@H](CC(C)(C)C)NC(=O)[C@H](CC(=O)O)NC2=O (relative stereo) [I-334, Ac-PL3-Asp-Npg-B5-Asp-3COOHF-Aib-Ala-Phe-Lys*3-PyrS2-1NapA-BztA-GlnR*3-Ala-NH2] |
